From patent US4851521A, “Esters of hyaluronic acid” (priority 1985, dated 1989)

Experiment: Solubility
Conditions: water / completely aqueous solutions

For “(mixed) ethanol and hydrocortisone ester (C21) of hyaluronic acid (HY) [HYC5]”, which “solubility in water / aqueous solutions (in words)” value is on record?
Its value is “insoluble in completely aqueous solutions”.
